Values quoted from earlier work, collected in patent US20250262209A1, “TREATMENT OF GASTROINTESTINAL DISEASES” (Aclipse Two, Inc., priority 2022, published 2025).

Chains of the proteins cited; added tags and fusions are not shown.
UniProt Q07869, whole entry, species assumed: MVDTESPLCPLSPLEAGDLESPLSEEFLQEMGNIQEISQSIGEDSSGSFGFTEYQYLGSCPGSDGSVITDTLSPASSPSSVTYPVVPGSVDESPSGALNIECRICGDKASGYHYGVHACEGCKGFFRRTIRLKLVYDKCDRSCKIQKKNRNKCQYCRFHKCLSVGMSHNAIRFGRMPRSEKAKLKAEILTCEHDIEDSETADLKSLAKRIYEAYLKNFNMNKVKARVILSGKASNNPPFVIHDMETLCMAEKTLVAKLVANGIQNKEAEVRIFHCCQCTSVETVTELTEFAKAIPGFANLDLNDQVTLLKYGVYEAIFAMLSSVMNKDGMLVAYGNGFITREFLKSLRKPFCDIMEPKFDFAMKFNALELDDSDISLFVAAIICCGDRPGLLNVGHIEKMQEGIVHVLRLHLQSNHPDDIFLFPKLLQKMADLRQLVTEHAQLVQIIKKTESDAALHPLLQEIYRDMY

Target: PPARα (Homo sapiens, UniProt Q07869)
Details: background statement; cited from earlier work

Structure (SMILES): CN(CCOc1ccc(CC2SC(=O)NC2=O)cc1)c1ccccn1 (racemic) [rosiglitazone, (RS)-5-[4-(2-[methyl(pyridin-2-yl)amino]ethoxy)benzyl]thiazolidine-2,4-dione]
- PPARα-binding action: no PPARα-binding action
